{"sequences": {"note": "The chains behind the UniProt entries cited, without tags or fusion partners.", "UniProt P29371, whole entry": "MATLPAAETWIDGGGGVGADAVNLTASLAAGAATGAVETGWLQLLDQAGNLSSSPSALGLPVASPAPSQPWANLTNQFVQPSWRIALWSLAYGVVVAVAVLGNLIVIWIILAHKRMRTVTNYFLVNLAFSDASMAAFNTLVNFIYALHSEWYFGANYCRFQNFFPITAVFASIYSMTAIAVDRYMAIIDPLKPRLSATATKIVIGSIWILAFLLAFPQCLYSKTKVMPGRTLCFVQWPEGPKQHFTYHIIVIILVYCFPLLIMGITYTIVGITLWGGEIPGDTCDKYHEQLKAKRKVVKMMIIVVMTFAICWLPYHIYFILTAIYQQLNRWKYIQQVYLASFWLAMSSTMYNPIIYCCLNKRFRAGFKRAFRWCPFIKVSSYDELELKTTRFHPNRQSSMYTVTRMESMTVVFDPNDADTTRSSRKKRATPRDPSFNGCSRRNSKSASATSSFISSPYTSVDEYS"}, "source": "patent US8618303B2", "about": "“Pyrrolidine derivatives” (Hoffmann-La Roche Inc., priority 2011, dated 2013)", "molecular_target": "human NK3 receptor (Homo sapiens (Human), UniProt P29371)", "assay": "[3H]SR142801 competition binding assay", "details": "read-out: Ki (uM) hNK3, membranes from HEK293 cells transiently expressing recombinant human NK3 receptor, Ki from IC50 by Cheng-Prussoff", "procedure": "hNK3 receptor binding experiment were performed using [^3H]SR142801 (Catalog No. TRK1035, specific activity: 74.0 Ci/mmol, Amersham, GE Healthcare UK limited, Buckinghamshire, UK) and membrane isolated from HEK293 cells transiently expressing recombinant human NK3 receptor. After thawing, the membrane homogenates were centrifuged at 48,000×g for 10 min at 4° C., the pellets were resuspended in the 50 mM Tris-HCl, 4 mM MnCl2, 1 μM phosphoramidon, 0.1% BSA binding buffer at pH 7.4 to a final assay concentration of 5 μg protein/well. For inhibition experiments, membranes were incubated with [^3H]SR142801 at a concentration equal to KD value of radioligand and 10 concentrations of the inhibitory compound (0.0003-10 μM) (in a total reaction volume of 500 μl) for 75 min at room temperature (RT). […] Nonspecific binding was measured in the presence of 10μM SB222200 for both radioligands. The radioactivity on the filter was counted (5 min) on a Packard Top-count microplate scintillation counter with quenching correction after addition of 45 μl of microscint 40 (Canberra Packard S.A., Ziirich, Switzerland) and shaking for 1 h. […]"}
{"smiles": "CN(C(=O)Oc1ccc(F)cc1)[C@@H]1CN(C(=O)C2CCN(c3ccc(C#N)nc3)CC2)C[C@@]1(C)c1ccc(Cl)cc1", "note": "(relative stereo)", "values": [{"measurement": "Ki", "value": 0.0029, "unit": "µM"}]}
